Measured values published in patent US9023876B2, “Compounds and methods for regulating integrins” (Adhaere Pharmaceuticals, Inc., priority 2010, dated 2015).

Molecular target: CD11b A-domain (αA-domain) (Homo sapiens, UniProt P11215)
Assay: αA-domain ligand-binding assay (GST-αA-domain to immobilized Fg)
Details: to level of activating mutant I316G
Excerpt: Purification of recombinant CD11b A-Domain (.Alpha.A-Domain). Recombinant human aA-domains were constructed and purified according to published protocols. […] The aA-domain in its active conformation was generated by replacing Ile^316 with Gly (1316G [55]) using forward primer 5′-[…]-3′ (SEQ ID NO: 3) and reverse primer 5′-[…]-3′ (SEQ ID NO: 4). The insert was digested with BamHI and SmaI and ligated into pGEX-2T vector also digested with BamHI and SmaI. All constructs were confirmed by direct DNA sequencing. All recombinant proteins were expressed as glutathione S-transferase (GST) fusion proteins in Escherichia coli and purified by affinity chromatography (Glutathione-beads, Sigma) following manufacturer's instructions. Purified protein preparations were dialyzed against 20 mm Tris-HCl, pH 7.5, 150 mm NaCl (Tris-buffered saline) and subsequently concentrated using Amicon-10 columns (Millipore) and stored at −80° C. […]
Maxisorp 96-well plates were coated with Fg (1 μg/well) in 10 mM PBS, pH 7.4 overnight and blocked with 1% bovine serum albumin in PBS. […] Subsequently, the amount of bound protein was determined by incubating with anti-GST antibody conjugated to horseradish peroxidase (GE, Piscataway, N.J.) (1:2000 dilution) for 1 hr. […] Absorbance was read using Spectromax M5 spectrophotometer (Molecular Devices, Sunnyvale, Calif.). […]

O=C(O)c1ccc(-c2ccc(C=C3SC(=O)N(c4ccccc4)C3=O)o2)cc1
binding of the WT αA to the immobilized ligand: increased binding
